## Ab-14 light chain CDR variants: yeast mating affinities

Values reported by Engelhart et al. 2022, doi:10.1038/s41597-022-01779-4 (FLAb copy).

All variants were tested on one target, the spike HR2 peptide PDVDLGDISGINAS (SARS-CoV-2).

Parent: Ab-14, a human scFv built as VH, the linker GGGGSGGGGSGGGGS, VL. Only the CDRs of the light chain vary.
VH: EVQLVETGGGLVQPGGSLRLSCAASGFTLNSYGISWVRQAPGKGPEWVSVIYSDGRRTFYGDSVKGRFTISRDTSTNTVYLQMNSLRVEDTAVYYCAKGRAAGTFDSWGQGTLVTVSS
VL: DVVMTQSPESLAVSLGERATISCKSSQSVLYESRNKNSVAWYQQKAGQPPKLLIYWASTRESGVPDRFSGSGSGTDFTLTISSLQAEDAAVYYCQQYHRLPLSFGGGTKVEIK

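Phage display of a naive human antibody library on the peptide gave the parent. Variants in AAYL50 differ from the parent at up to three CDR positions; double and triple changes were sampled at random. The scFvs were displayed on barcoded MATa yeast, the peptide on MATalpha yeast. Mating (16 h, 30 °C) was followed by selection of diploids and sequencing of their barcodes. A regression on co-assayed BCL2-family reference pairs converts the normalised counts of each replicate to an apparent Kd. The assay was run in three technical replicates.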

Variants are written as CDR1, CDR2 and CDR3 of the light chain (limits as in the source). Parent: KSSQSVLYESRNKNSVA, WASTRES, QQYHRLPLS.
All variants listed here change E32 of the VL, counted from its first residue.
Affinities are written as log10 Kd with Kd in nM; a lower number is a better binder.
Averages over replicates are reported, and they cover detected replicates only.
Where no diploid with the target was found in any replicate, the entry reads "nd": below detection, most likely a poor binder, though not proof of it.
The list is sorted by this average, lowest first, undetected variants last.
Background: pairings of library AAYL50 with three empty control strains gave a value in 18% of cases (median 4.19, 5th percentile 2.99). Values in that range, when seen in few replicates, are hard to tell from nonspecific mating.
For reference, the parent read 0.65 as the reference entry and 1.68 as a member of this library.

KSSQSVLYNSRNKNSVA, NASTRES, QQYHRLPLS: -0.11 (3 of 3 replicates).
KSSQSVLYTSNNKNSVA, WASTRES, QQYHRLPLS: 0.17 (3 of 3 replicates).
KVSQSVLYDSRNKNSVA, WASTRTS, QQYHRLPLS: 0.28 (3 of 3 replicates).
KSSGSVLYNSRNINSVA, WASTRES, QQYHRLPLS: 0.54 (3 of 3 replicates).
KSSQSVLYSSRNQNSVA, WASTREG, QQYHRLPLS: 0.94 (3 of 3 replicates).
KSSQSVLYYSRNKNSVA, WASTRES, QQYHRLPLS: 1.08 (3 of 3 replicates).
KSSQSVLYTSRNLNSVA, WASTRES, QQYHQLPLS: 1.29 (3 of 3 replicates).
ASSQSVLYGSRNKNSVA, WASTRES, QQYHRLPLS: 1.35 (3 of 3 replicates).
KSSQSVLYYSRNKNSVA, WASTREI, QQYSRLPLS: 1.59 (3 of 3 replicates).
KGSQSVLYQSRNKNSVA, WAQTRES, QQYHRLPLS: 1.82 (3 of 3 replicates).
KSSQSVLYWSRNKNSVA, WASTRES, QQYCALPLS: 2.10 (3 of 3 replicates).
KGSQSVLYPSRNKFSVA, WASTRES, QQYHRLPLS: 2.26 (3 of 3 replicates).
KSSQSVLYRSRNDNSVA, WASTREC, QQYHRLPLS: 2.52 (2 of 3 replicates).
KSSMSVLYLSRNKNSVA, WASTRTS, QQYHRLPLS: 2.53 (3 of 3 replicates).
KSSQSVLYQSRNKWSVA, WASTRES, QQYHRLPLS: 2.64 (3 of 3 replicates).
KSSQWVLYRSRNKNSVA, WASTRES, QQYHQLPLS: 2.68 (3 of 3 replicates).
KSSQSVLYRSCSKNSVA, WASTRES, QQYHRLPLS: 2.79 (3 of 3 replicates).
KSSQSVLYHSLNKNKVA, WASTRES, QQYHRLPLS: 3.32 (1 of 3 replicates).
KSSQSVLYNSRNKNYVA, WASTRES, QQYHRLPLS: 3.45 (3 of 3 replicates).
KSSQSVLYSSRNKNEEA, WASTRES, QQYHRLPLS: 3.45 (1 of 3 replicates).
KSSQSVQYISRNKFSVA, WASTRES, QQYHRLPLS: 4.29 (1 of 3 replicates).
KSSQIVLYISRNKNSVA, WASTRES, QQYHRTPLS: 4.76 (1 of 3 replicates).
KTSQSVLYCSRNKNSVA, FASTRES, QQYHRLPLS: 4.81 (2 of 3 replicates).
KSSQSVLYKSRNKNSIA, WASPRES, QQYHRLPLS: 5.15 (2 of 3 replicates).
KSSQSVRYQSRNKNSVA, WASTRES, QQYHRYPLS: 6.25 (1 of 3 replicates).
KSSQSVLWFSRNKNSVA, WASTGES, QQYHRLPLS: nd (0 of 3 replicates).
KSSQSVLYRSRNKISVA, WASTRES, QQYHGLPLS: nd (0 of 3 replicates).
FSSQSVLYFSRNKNSVA, WASTRES, FQYHRLPLS: nd (0 of 3 replicates).
KSSQSVLYLSRNKNSEA, MASTRES, QQYHRLPLS: nd (0 of 3 replicates).
KSSQSVLYMSRNKNSVA, WASTRES, QQYHRWPLS: nd (0 of 3 replicates).
KSSQSVLYHDRNKNSVA, WASTRES, AQYHRLPLS: nd (0 of 3 replicates).
KSSQSVSYISRNKNSVA, WASTRES, QAYHRLPLS: nd (0 of 3 replicates).

The last 4 entries again:

CDR-L1	CDR-L2	CDR-L3	mean, log10 nM	seen in
KSSQSVLYLSRNKNSEA	MASTRES	QQYHRLPLS	nd	0 of 3
KSSQSVLYMSRNKNSVA	WASTRES	QQYHRWPLS	nd	0 of 3
KSSQSVLYHDRNKNSVA	WASTRES	AQYHRLPLS	nd	0 of 3
KSSQSVSYISRNKNSVA	WASTRES	QAYHRLPLS	nd	0 of 3